Read-outs that look alike come from different tables or passages of the source.
Settings: filtrate (0.22 μm) of the water suspension after two hours of stirring

Poly-CD-Glycine-Docetaxel [CDP No. 1]
PS Zave (CDP No. 1:Celite ratio 1:10 w/w): 24 nm | PS Zave (CDP No. 1:Celite ratio 1:15 w/w): 25 nm

Reference: US9598503B2, “Methods and systems for polymer precipitation and generation of particles” (CERULEAN PHARMA INC., priority 2012, dated 2017)
